{"source": "patent US5500807A", "about": "“Selection method for pharmacologically active compounds” (The Regents of the University of California, priority 1992, dated 1996)", "origin": "cited, not measured here", "conditions": "in vivo; cited from earlier work", "data": [{"smiles": "CCCCc1oc2ccccc2c1C(=O)c1cc(I)c(OCCN(CC)CC)c(I)c1", "note": "[amiodarone, 2-butyl-3-[3,5-diiodo-4-(β-diethylaminoethoxy)-benzoyl]benzofuran]", "values": [{"measurement": "tissue accumulation, in words", "result": "accumulates extensively in tissues"}]}]}
